Target: Cannabinoid receptor 1 (Rattus norvegicus, UniProt P20272)
Assay: Potency at CB1 receptor in rat brain by [35S]GTP-gamma-S binding assay
Format: functional, tissue-based

Amino acid sequences for entries named in this document (tags omitted).
UniProt P20272, whole entry: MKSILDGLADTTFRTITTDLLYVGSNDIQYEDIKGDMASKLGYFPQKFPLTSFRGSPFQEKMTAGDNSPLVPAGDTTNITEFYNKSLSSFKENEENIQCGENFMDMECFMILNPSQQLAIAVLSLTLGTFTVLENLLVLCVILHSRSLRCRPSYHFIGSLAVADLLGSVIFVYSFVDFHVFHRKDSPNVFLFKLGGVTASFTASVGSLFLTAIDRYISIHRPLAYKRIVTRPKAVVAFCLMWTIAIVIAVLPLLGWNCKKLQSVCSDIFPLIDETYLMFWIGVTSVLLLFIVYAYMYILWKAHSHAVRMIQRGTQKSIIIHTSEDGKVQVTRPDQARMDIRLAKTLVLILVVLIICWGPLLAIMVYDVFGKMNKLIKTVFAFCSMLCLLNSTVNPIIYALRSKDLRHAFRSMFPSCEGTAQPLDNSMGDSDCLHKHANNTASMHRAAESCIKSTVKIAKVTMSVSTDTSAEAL

## CCCCC/C=C\C/C=C\C/C=C\C/C=C\CCCC(=O)OC(CO)CO [2-ARACHIDONOYLGLYCEROL]
  EC50: 1000 nM
